From patent US11407979B2, “Intermittent starvation techniques to prolong functional lifetime of liver cells in culture” (Colorado State University Research Foundation, priority 2017, dated 2022)

Tested on: primary human hepatocytes in micropatterned co-cultures (MPCCs)
[1] = metformin 250 μM for 2 days every week for 4 weeks in serum-containing medium, over time, vs non-starved cultures

For `CN(C)C(=N)N=C(N)N` [metformin], the “albumin production, fold higher than non-starved cultures” value [1] was 1.5 fold, the “urea production, fold higher than non-starved cultures” value [1] was 1.6 fold and the “functional lifetime of hepatocytes” value (metformin treatment in MPCCs over an untreated control, not to the same extent as the starvation protocol) was “significantly prolonged”.
